Laboratory results taken from ChEMBL document CHEMBL1124014, “Synthesis of (aryloxy)alkylamines. 2. Novel imidazo-fused heterocycles with calcium channel blocking and local anesthetic activity” (J Med Chem, 1988).

Amino acid sequences for entries named in this document (tags omitted).
UniProt P15381, whole entry: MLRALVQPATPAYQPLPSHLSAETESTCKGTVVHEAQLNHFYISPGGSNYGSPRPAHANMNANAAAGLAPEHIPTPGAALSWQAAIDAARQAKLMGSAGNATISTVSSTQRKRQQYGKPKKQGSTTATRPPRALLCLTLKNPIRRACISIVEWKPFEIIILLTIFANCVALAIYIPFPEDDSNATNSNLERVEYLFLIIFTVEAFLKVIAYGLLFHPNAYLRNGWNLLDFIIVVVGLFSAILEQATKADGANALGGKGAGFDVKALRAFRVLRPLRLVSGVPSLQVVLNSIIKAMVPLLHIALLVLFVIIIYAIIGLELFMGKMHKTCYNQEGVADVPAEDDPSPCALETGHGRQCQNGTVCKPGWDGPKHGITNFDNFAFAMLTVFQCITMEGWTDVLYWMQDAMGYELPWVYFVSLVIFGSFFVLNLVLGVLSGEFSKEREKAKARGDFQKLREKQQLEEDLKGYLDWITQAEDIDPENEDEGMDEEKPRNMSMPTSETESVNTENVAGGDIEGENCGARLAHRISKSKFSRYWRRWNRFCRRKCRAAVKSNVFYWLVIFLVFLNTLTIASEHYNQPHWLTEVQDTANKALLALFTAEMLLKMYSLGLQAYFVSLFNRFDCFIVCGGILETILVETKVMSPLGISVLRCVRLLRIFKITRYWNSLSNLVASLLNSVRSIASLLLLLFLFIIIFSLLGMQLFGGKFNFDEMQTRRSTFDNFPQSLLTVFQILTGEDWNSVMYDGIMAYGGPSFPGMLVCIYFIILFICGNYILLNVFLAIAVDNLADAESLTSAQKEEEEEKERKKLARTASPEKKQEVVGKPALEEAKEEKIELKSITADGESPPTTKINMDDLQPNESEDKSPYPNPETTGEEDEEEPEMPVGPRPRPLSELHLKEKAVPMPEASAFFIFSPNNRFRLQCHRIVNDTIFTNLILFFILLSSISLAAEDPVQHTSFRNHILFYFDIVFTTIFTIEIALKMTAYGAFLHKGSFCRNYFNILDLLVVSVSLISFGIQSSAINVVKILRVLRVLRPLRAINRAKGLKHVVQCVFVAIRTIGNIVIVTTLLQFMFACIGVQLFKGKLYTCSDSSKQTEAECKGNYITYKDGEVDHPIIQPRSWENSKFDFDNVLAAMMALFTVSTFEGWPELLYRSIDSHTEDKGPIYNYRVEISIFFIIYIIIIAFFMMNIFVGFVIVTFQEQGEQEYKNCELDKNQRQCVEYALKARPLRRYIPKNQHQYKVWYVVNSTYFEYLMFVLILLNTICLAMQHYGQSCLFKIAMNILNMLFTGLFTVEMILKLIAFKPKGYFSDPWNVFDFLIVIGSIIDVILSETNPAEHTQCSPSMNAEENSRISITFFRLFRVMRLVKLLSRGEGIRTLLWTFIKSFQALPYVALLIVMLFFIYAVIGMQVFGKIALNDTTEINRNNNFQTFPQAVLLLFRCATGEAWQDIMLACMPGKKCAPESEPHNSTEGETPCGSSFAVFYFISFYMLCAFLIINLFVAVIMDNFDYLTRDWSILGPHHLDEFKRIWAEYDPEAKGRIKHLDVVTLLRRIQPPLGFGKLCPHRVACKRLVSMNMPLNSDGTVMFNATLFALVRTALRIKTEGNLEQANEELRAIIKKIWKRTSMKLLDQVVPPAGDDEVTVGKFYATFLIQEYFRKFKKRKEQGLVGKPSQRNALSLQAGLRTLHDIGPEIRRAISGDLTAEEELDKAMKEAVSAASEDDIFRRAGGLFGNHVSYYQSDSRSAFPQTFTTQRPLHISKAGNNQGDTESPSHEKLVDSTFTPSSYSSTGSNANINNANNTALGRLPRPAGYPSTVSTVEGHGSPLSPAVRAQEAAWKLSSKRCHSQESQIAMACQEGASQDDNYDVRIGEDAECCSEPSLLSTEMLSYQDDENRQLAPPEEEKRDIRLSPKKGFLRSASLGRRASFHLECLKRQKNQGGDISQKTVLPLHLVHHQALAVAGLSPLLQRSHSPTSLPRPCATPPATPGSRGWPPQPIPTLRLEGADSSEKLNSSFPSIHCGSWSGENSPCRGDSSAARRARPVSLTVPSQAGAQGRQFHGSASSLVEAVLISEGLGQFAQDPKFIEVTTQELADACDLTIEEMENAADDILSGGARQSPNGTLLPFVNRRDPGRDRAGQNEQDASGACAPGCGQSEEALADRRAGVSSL

Molecular target: Voltage-dependent L-type calcium channel subunit alpha-1C (Oryctolagus cuniculus, UniProt P15381)
Experiment: Inhibition of [3H]nitrendipine binding to calcium channels in Rabbit cardiac muscle.
Format: tissue-based, Muscle tissue

SMILES: COc1ccc(CCN(C)CCCC(C#N)(c2ccc(OC)c(OC)c2)C(C)C)cc1OC (stereo unspecified)
- IC50: 1000 nM
